Test results taken from PMC12422955.

These substances were tested against dNOE1–mScarlet (dimeric NOE1 construct, residues 205-481 with five GCN4 residues) (UniProt Q62609) (assay: FSEC peak shift). Settings: 10 nM GluA4 mutants with 50 nM dNoe 1-mScarlet; parent: est. 0.43; read off a plot.
With “recombinant homomeric GluA4 receptor (C-terminal GFP and Strep tag) (from UniProt P19493) D49A” the other: FSEC peak shift was 0.19 min. With “recombinant homomeric GluA4 receptor (C-terminal GFP and Strep tag) (from UniProt P19493) H47A” the other: FSEC peak shift was 0.27 min. “recombinant homomeric GluA4 receptor (C-terminal GFP and Strep tag) (from UniProt P19493) N50A” showed an other: FSEC peak shift of 0.3 min. Work on “recombinant homomeric GluA4 receptor (C-terminal GFP and Strep tag) (from UniProt P19493) R25A” yielded an other: FSEC peak shift of 0.2 min. Work on “recombinant homomeric GluA4 receptor (C-terminal GFP and Strep tag) (from UniProt P19493) R69A” yielded an other: FSEC peak shift of 0.45 min. “recombinant homomeric GluA4 receptor (C-terminal GFP and Strep tag) (from UniProt P19493) S65A” showed an other: FSEC peak shift of 0.42 min. In the case of “recombinant homomeric GluA4 receptor (C-terminal GFP and Strep tag) (from UniProt P19493) Y21A”, the other: FSEC peak shift is reported as 0.26 min.
